Assays:
A549 human lung cancer = assay: Xenograft model of A549 human lung cancer inoculated subcutaneously in nude mice; format: in vivo, BALB/C nude mice; conditions: Cisplatin 2 mg/kg ip × 7 qd
Experimental: The injection of the invention (10 g/100 ml), Cisplatin (Qilu Phamaceutical Co., Ltd), blank fat emulsion and normal saline […]

QGY human hepatoma = assay: Xenograft model of QGY human hepatoma inoculated subcutaneously in nude mice; conditions: Adriamycin 2 mg/kg ip × 7 qd

N.N.[Cl][Pt][Cl] [Cisplatin]
Weight of animal start (A549 human lung cancer): 20.4 g

COc1cccc2c1C(=O)c1c(O)c3c(c(O)c1C2=O)C[C@@](O)(C(=O)CO)C[C@@H]3O[C@H]1C[C@H](N)[C@H](O)[C@H](C)O1 [Adriamycin]
Weight of animal start (QGY human hepatoma): 21.8 g

Source: US9585929B2 (ZHEJIANG KANGLAITE GROUP CO., LTD., priority 2014, dated 2017)
